Earlier results as cited in US20110319427A1 (priority 2009, published 2011).

Tested on: bortezomib-resistant THP1 leukemia cells (β5 proteasome subunit mutated and over-expressed)
Settings: cited from earlier work

In the case of `CC(C)C[C@H](NC(=O)[C@H](Cc1ccccc1)NC(=O)c1cnccn1)B(O)O` [bortezomib, [(1R)-3-Methyl-1-[[(2S)-1-oxo-3-phenyl-2-[(pyrazinylcarbonyl)amino]propyl]amino]butyl]boronic acid], the “fold resistance to bortezomib” value is given as “up to 237 fold”.
